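Following 48 hours of exposure in 96-well plates, responses at five concentrations were used to interpolate endpoints linearly. TGI marks complete inhibition of growth.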
Experiments:
Experiment in all cases: NCI tumour cell line growth inhibition, 48 h
786-0 renal = test system: 786-0 renal
A498 renal = test system: A498 renal
A549 NSCLC = test system: A549 NSCLC
ACHN renal = test system: ACHN renal
CAKI-1 renal = test system: CAKI-1 renal
CCRF-CEM leukemia = test system: CCRF-CEM leukemia
COLO 205 colon = test system: COLO 205 colon
DLD-1 colon = test system: DLD-1 colon
DMS 114 small cell lung = test system: DMS 114 small cell lung
DMS 273 small cell lung = test system: DMS 273 small cell lung
EKVX NSCLC = test system: EKVX NSCLC
HCT-116 colon = test system: HCT-116 colon
HCT-15 colon = test system: HCT-15 colon
HL-60(TB) leukemia = test system: HL-60(TB) leukemia
HOP-18 NSCLC = test system: HOP-18 NSCLC
HOP-62 NSCLC = test system: HOP-62 NSCLC
HOP-92 NSCLC = test system: HOP-92 NSCLC
HT29 colon = test system: HT29 colon
IGROV1 ovarian = test system: IGROV1 ovarian
K-562 leukemia = test system: K-562 leukemia
KM12 colon = test system: KM12 colon
KM20L2 colon = test system: KM20L2 colon
LOX IMVI melanoma = test system: LOX IMVI melanoma
LXFL 529 NSCLC = test system: LXFL 529 NSCLC
M14 melanoma = test system: M14 melanoma
M19-MEL melanoma = test system: M19-MEL melanoma
MALME-3M melanoma = test system: MALME-3M melanoma
MOLT-4 leukemia = test system: MOLT-4 leukemia
NCI-H23 lung = test system: NCI-H23 lung
NCI-H322M lung = test system: NCI-H322M lung
NCI-H460 lung = test system: NCI-H460 lung
NCI-H522 lung = test system: NCI-H522 lung
OVCAR-3 ovarian = test system: OVCAR-3 ovarian
OVCAR-4 ovarian = test system: OVCAR-4 ovarian
OVCAR-5 ovarian = test system: OVCAR-5 ovarian
OVCAR-8 ovarian = test system: OVCAR-8 ovarian
RXF 393 renal = test system: RXF 393 renal
RXF-631 renal = test system: RXF-631 renal
SF-268 CNS = test system: SF-268 CNS
SF-295 CNS = test system: SF-295 CNS
SF-539 CNS = test system: SF-539 CNS
SK-MEL-2 melanoma = test system: SK-MEL-2 melanoma
SK-MEL-28 melanoma = test system: SK-MEL-28 melanoma
SK-MEL-5 melanoma = test system: SK-MEL-5 melanoma
SK-OV-3 ovarian = test system: SK-OV-3 ovarian
SN12C renal = test system: SN12C renal
SNB-19 CNS = test system: SNB-19 CNS
SNB-75 CNS = test system: SNB-75 CNS
SNB-78 CNS = test system: SNB-78 CNS
SR leukemia = test system: SR leukemia
SW-620 colon = test system: SW-620 colon
TK-10 renal = test system: TK-10 renal
U251 CNS = test system: U251 CNS
UACC-257 melanoma = test system: UACC-257 melanoma
UACC-62 melanoma = test system: UACC-62 melanoma
UO-31 renal = test system: UO-31 renal
XF 498 CNS = test system: XF 498 CNS
BT-549 breast = test system: BT-549 breast
DU-145 prostate = test system: DU-145 prostate
HCC-2998 colon = test system: HCC-2998 colon
HS 578T breast = test system: HS 578T breast
MCF7 breast = test system: MCF7 breast
MDA-MB-231 breast = test system: MDA-MB-231 breast
MDA-MB-435 = test system: MDA-MB-435
NCI/ADR-RES ovarian = test system: NCI/ADR-RES ovarian
PC-3 prostate = test system: PC-3 prostate
RPMI-8226 leukemia = test system: RPMI-8226 leukemia
T-47D breast = test system: T-47D breast

Measured: TGI

CCN(CC)C(=O)Oc1ccc(/C=N/O)nc1
not listed: BT-549 breast | DU-145 prostate | HCC-2998 colon | HS 578T breast | MCF7 breast | MDA-MB-231 breast | MDA-MB-435 | NCI/ADR-RES ovarian | PC-3 prostate | RPMI-8226 leukemia | T-47D breast
> 100 µM: all other assays above

O=C(CC(=O)c1ccccc1)OC1CN2CCC1CC2 (configuration not stated)
not listed: DLD-1 colon | DMS 114 small cell lung | DMS 273 small cell lung | HOP-18 NSCLC | HOP-92 NSCLC | KM20L2 colon | LXFL 529 NSCLC | M19-MEL melanoma | NCI-H460 lung | RXF-631 renal | SF-539 CNS | SNB-78 CNS | XF 498 CNS
> 100 µM: all other assays above

— PubChem BioAssay (NCI)
